## scFv variants of Ab-14 (heavy chain) against a SARS-CoV-2 spike peptide

From the AlphaSeq antibody data of Engelhart et al. 2022 (doi:10.1038/s41597-022-01779-4), copy in the FLAb collection.

Target peptide (SARS-CoV-2 spike, HR2 region): PDVDLGDISGINAS

Ab-14 is the parent antibody, in scFv form: VH, then a (GGGGS)3 linker, then VL. The light chain is unchanged in all variants.
VH: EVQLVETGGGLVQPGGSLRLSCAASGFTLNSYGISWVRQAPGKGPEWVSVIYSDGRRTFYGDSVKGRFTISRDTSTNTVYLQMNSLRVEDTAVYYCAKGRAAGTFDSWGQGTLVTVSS
VL: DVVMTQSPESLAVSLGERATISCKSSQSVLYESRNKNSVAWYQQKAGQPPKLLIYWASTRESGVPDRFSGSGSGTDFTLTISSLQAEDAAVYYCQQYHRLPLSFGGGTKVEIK

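Phage display of a naive human antibody library on the peptide gave the parent. Library AAYL49 holds single substitutions and randomly drawn double and triple substitutions in the CDRs. The assay is AlphaSeq: two haploid yeast populations carry antibody and antigen on their surface. Binding brings cells together so that they mate, and sequencing counts the barcode pairs among the diploids. Each replicate has its own calibration line, from reference interactions of the BCL2 family. There are three technical replicates.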

The whole VH of each variant is written out. The read-out is the apparent dissociation constant on a log10 scale (nM): the lower, the stronger. A pair that was not seen in that replicate is written "ND"; this usually means weak binding, but a binder can also be missed. Empty control strains, which show no peptide, gave a signal in 15% of pairings with library AAYL49; the median was 4.06 and 95% of these signals were weaker than 2.83. No background was subtracted. For each scFv, signals with the empty controls are counted beside the result, with their mean in brackets.

| # | VH | replicates, log10 nM | control signals |
|---|---|---|---|
| 1 | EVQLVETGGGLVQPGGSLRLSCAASGFTLNSYGISWVRQAPGKGPEWVSTIYSDGRRTKYGDNVKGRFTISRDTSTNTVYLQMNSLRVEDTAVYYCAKGRAAGTFDSWGQGTLVTVSS | ND ND ND | 1/9 (2.68) |
| 2 | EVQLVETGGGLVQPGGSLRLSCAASGFTLQSYGISWVRQAPGKGPEWVSVIYSDGRRTFYGDSVKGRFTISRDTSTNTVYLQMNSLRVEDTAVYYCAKGRNAGTFDSWGQGTLVTVSS | 0.70 0.82 0.69 | 1/9 (2.46) |
| 3 | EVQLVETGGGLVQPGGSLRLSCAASGFTLNSYGISWVRQAPGKGPEWVSVIYSDGRRTFYGDSVKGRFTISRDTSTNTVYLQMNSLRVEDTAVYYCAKGRAARTFDSWGQGTLVTVSS | 1.47 1.45 1.84 | 0/9 |
| 4 | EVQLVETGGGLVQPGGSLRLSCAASGFTLNSYGDSWVRQAPGKGPEWVSVIYSDGRRTFYSDSVKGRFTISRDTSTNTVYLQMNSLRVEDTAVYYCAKGRAAETFDSWGQGTLVTVSS | ND ND ND | 2/9 (3.70) |
| 5 | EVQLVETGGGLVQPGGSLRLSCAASGFTLNSYGISWVRQAPGKGPEWVSVIYSDGRQTFAGDSVKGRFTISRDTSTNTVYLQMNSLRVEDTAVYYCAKGRAAGTFDSWGQGTLVTVSS | ND 5.01 ND | 3/9 (3.40) |
| 6 | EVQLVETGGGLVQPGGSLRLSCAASGFTLNSYGNSWVRQAPGKGPEWVSVIYSDGRRTFYGDSVPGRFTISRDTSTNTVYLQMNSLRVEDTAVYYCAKGRGAGTFDSWGQGTLVTVSS | 4.47 ND ND | 3/9 (4.06) |
| 7 | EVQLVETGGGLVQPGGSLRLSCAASGFTLNSYGISWVRQAPGKGPEWVSSIYSDGRRTFYGDSVKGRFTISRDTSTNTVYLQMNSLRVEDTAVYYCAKGRMAGTFDWWGQGTLVTVSS | ND ND ND | 1/9 (2.96) |
| 8 | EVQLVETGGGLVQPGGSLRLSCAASGFTLNSYGISWVRQAPGKGPEWVSVSYSDGRRTFYGDSVKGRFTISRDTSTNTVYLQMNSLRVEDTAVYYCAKGRAADTFDRWGQGTLVTVSS | ND ND ND | 0/9 |
| 9 | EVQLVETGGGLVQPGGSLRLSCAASGFTLNSYGISWVRQAPGKGPEWVSVIYSDGRRTFYGDSVFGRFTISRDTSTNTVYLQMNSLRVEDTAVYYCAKGRAIGTWDSWGQGTLVTVSS | 4.15 ND ND | 0/9 |
| 10 | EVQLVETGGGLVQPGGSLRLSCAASGFTLNSYGISWVRQAPGKGPEWVSKIYSDGHRTFYGDSVKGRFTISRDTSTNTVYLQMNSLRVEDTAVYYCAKGRAGGTFDSWGQGTLVTVSS | ND 5.10 ND | 1/9 (3.90) |
| 11 | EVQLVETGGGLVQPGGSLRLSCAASGFTLNSYGISWVRQAPGKGPEWVSVIYSDGRITGYDDSVKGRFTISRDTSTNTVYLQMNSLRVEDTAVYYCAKGRAAGTFDSWGQGTLVTVSS | 3.48 3.34 ND | 1/9 (3.56) |
| 12 | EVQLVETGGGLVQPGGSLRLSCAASGFTLNSYGISWVRQAPGKGPEWVSVIYSDGRRTFAGDSVKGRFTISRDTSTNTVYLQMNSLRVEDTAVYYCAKSRATGTFDSWGQGTLVTVSS | ND ND ND | 0/9 |
| 13 | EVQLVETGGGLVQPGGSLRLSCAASGRTLNSYGISWVRQAPGKGPEWVSVISKDGRRTFYGDSVKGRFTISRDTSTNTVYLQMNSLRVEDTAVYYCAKGRAAGTFDSWGQGTLVTVSS | ND ND ND | 0/9 |
| 14 | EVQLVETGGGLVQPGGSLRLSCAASGITLNSYGISWVRQAPGKGPEWVSVNYSDGRRTFYGDSVKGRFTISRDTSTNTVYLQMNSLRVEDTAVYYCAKGRAAGNFDSWGQGTLVTVSS | ND ND 5.54 | 3/9 (3.87) |
| 15 | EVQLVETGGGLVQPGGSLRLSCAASCFTLNQYGISWVRQAPGKGPEWVSVIYSDGRRTFYGDSVKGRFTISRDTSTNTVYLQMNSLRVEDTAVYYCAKGRAAGTFDSWGQGTLVTVSS | 4.15 ND ND | 0/9 |
| 16 | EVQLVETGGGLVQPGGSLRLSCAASGMTLNSYGISWVRQAPGKGPEWVSVIYSDGRRTFYGDSVRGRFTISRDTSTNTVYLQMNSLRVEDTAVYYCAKGRATGTFDSWGQGTLVTVSS | 1.13 1.31 2.59 | 0/9 |
| 17 | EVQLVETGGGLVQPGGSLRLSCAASGFQLLSYGISWVRQAPGKGPEWVSVIYADGRRTFYGDSVKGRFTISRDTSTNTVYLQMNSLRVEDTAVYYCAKGRAAGTFDSWGQGTLVTVSS | 0.82 1.04 0.92 | 0/9 |
| 18 | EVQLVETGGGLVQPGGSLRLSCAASGFTLNSYGISWVRQAPGKGPEWVSVIYSDGVRTFDGDSVKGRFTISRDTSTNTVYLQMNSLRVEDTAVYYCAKGRAAGTFCSWGQGTLVTVSS | ND ND ND | 2/9 (4.03) |
| 19 | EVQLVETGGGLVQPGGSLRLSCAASGFTLNSYGISWVRQAPGKGPEWVSVIYSDGRRQFMGDSVKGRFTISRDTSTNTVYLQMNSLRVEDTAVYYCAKGRAAGTFDQWGQGTLVTVSS | ND 1.99 ND | 0/9 |
| 20 | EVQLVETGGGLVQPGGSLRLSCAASGFTLNRYGISWVRQAPGKGPEWVSVIYSDGRRTCYGDSVKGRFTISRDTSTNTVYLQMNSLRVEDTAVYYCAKGRAAGNFDSWGQGTLVTVSS | 5.01 ND 6.25 | 4/9 (4.51) |
| 21 | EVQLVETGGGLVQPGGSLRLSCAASGFTLNSYGISWVRQAPGKGPEWVSVIYSDGRRTFYGDMVCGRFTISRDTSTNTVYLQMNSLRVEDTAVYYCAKGRAAGTFDSWGQGTLVTVSS | ND ND 2.14 | 0/9 |
| 22 | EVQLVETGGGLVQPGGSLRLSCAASGFTLNSQGISWVRQAPGKGPEWVSVIYKDGRRTFYGDSVKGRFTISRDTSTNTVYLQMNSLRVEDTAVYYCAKGRAAGTFDSWGQGTLVTVSS | ND ND ND | 4/9 (4.44) |
| 23 | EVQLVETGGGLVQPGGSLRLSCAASGFTLNSYGISWVRQAPGKGPEWVSVIYSKGRRTFYGDSVKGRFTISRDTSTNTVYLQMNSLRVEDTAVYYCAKGRAAGSFDSWGQGTLVTVSS | ND ND ND | 2/9 (3.80) |

In this assay the parent's reference entry averaged 0.65; its copy inside this library read 4.11 (one replicate of three).